Antibody variant affinities, Ab-14 light chain, assay 1

Target peptide (SARS-CoV-2 spike, HR2 region): PDVDLGDISGINAS

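Phage display of a naive human antibody library on the peptide gave the parent. In library AAYL50, one, two or three CDR residues were substituted; doubles and triples were drawn at random. In AlphaSeq, yeast of one mating type display the scFv and yeast of the other type display the target. After mating in shaken culture at 30 °C for 16 h, diploids were selected and their barcode pairs sequenced. Each replicate has its own calibration line, from reference interactions of the BCL2 family. Mating was done three times.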

Each scFv is VH, the linker GGGGSGGGGSGGGGS, VL, as in the parent Ab-14, and differs from it in the CDRs of the light chain only.
VH: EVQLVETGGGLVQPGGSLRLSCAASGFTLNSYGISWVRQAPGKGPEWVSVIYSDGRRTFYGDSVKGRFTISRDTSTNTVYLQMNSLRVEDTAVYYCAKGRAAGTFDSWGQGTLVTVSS
VL: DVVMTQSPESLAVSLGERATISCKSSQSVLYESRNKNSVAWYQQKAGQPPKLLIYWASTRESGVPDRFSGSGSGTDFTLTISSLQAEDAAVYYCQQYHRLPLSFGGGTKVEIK

Substitutions are numbered in sequence along the VL above, starting at 1 (not Kabat). The read-out is the apparent dissociation constant on a log10 scale (nM): the lower, the stronger. An entry "nd" has no value in the source: the pair was not observed among the diploids in that replicate. This suggests poor binding but is not conclusive. Three control strains display no target. For library AAYL50, 18% of the pairings with them gave a signal, with a median of 4.19 and one signal in twenty below 2.99, so weak values seen in few replicates may be background. The control count says in how many pairings with the empty strains this scFv gave a signal, with their mean in brackets.

changes,"log10 Kd, replicates",empty controls
T59L+E61N+L102S,0.94 / 0.78 / 0.92,1/9 (2.60)
Q27S+S58K+S103M,2.60 / 2.60 / 2.85,4/9 (4.01)
R60Q+L100C+S103Q,2.58 / 2.53 / 3.07,6/9 (4.63)
V29C+N35M+A40N,4.39 / 2.99 / 3.95,2/9 (4.00)
A40I+S58C+H98K,nd / nd / nd,3/9 (3.60)
S25P+L30M+N37W,3.51 / 2.96 / 3.96,4/9 (4.49)
S25R+R34M+R99N,2.09 / 2.66 / 2.89,0/9
S62V+Y97D+L100D,1.80 / 1.85 / 1.78,4/9 (4.40)
N35T+H98M+L102T,nd / nd / nd,1/9 (2.63)
A40C,nd / nd / nd,1/9 (4.31)
K24T+S25F+S26E,-0.11 / 0.29 / 0.14,4/9 (5.08)
W56V+R99Y+S103G,nd / 4.51 / 4.54,3/9 (4.21)
V29G+K36W+V39F,nd / nd / nd,1/9 (1.64)
V39A+S58N+H98K,nd / nd / nd,0/9
K36W+Q96P+Y97S,2.68 / 3.17 / 3.20,3/9 (3.75)
K36M+N37F+H98Q,nd / nd / nd,0/9
N37Y+S58F+L100K,nd / 3.44 / 4.63,2/9 (4.93)
L30T+R34S+K36V,0.29 / 0.46 / 0.33,2/9 (4.61)
K24C+A57R+S62T,nd / nd / nd,0/9
E61D+Q96I+P101N,0.76 / 0.95 / 1.14,1/9 (5.21)
R60A+Q95E+Y97M,nd / 4.93 / nd,0/9
V39L+H98A+L100Q,4.22 / nd / nd,1/9 (3.90)
E32H+V39P+H98T,nd / nd / nd,1/9 (5.26)
N37F+E61D+H98N,4.27 / nd / nd,5/9 (4.47)
N35D+K36P+E61H,1.09 / 1.37 / 1.47,0/9
Q27H+K36Q+Q96L,3.35 / 3.05 / nd,2/9 (4.04)
L30M+Y31R+S38F,3.25 / 3.66 / nd,4/9 (4.71)
S38P+A40P+R60S,nd / nd / nd,0/9
S33R+L102R,nd / nd / nd,0/9
K24Q+R34V+N35F,1.69 / 2.04 / 1.82,0/9
V39Q+T59D+H98Y,nd / nd / nd,0/9
L30W+E61P+S62E,0.87 / 1.14 / 1.28,1/9 (3.58)
P101M+S103E,1.63 / 1.38 / 1.20,1/9 (4.09)
E32H+S62T+H98I,1.60 / 1.92 / 2.21,2/9 (3.83)
S38Q+Q96R,nd / nd / nd,0/9
V39Y+W56A+E61D,nd / nd / nd,0/9
V39M+L100I+P101E,nd / nd / nd,1/9 (4.12)
S25Q+S33T+K36L,0.72 / 1.07 / 0.97,1/9 (3.82)
S28T+L30N+Y31N,1.02 / 0.88 / 0.78,2/9 (3.95)
R34I+W56P+L102N,nd / nd / nd,0/9
Q27T+R34E+R60K,0.59 / 0.86 / 0.85,1/9 (3.42)
K24H+V29T+N37Q,1.76 / 1.65 / 1.63,0/9
E32W+Q95C,nd / 4.17 / nd,1/9 (2.70)
N37A+A57Y+R60P,nd / nd / nd,1/9 (4.72)
S26N+R34H+S58H,1.64 / 1.65 / 1.73,2/9 (4.15)
Q27S+S38Y+L102H,nd / nd / nd,1/9 (2.98)
S38A+V39Q+E61G,nd / nd / nd,0/9

Picked from the list: the 2 lowest averages where every replicate gave a value.

{"changes": "K24T+S25F+S26E", "log10 Kd, replicates": "-0.11 / 0.29 / 0.14", "empty controls": "4/9 (5.08)"}
{"changes": "L30T+R34S+K36V", "log10 Kd, replicates": "0.29 / 0.46 / 0.33", "empty controls": "2/9 (4.61)"}

Reference: Engelhart et al. 2022, doi:10.1038/s41597-022-01779-4. File: FLAb, binding data.